# Experimental melting point values from OPERA 2.9

The melting point is given in degrees Celsius. Cells with "n/a" have no entry in this list. "via" names the databases from which the curators took the value.

| compound | name | melting point (°C) | via |
|---|---|---|---|
| C=CNC=O | Formamide, N-ethenyl- | -28.2 | eChemPortal |
| O=C(O)CCNC(=O)C12CC3CC(CC(C3)C1)C2 | 3-[(1-adamantylcarbonyl)amino]propanoic acid | 186 | OCHEM |
| CCCCCCCCCc1cc(C)cc(Cc2cc(C)cc(CCCCCCCCC)c2O)c1O | Phenol, 2,2'-methylenebis[4-methyl-6-nonyl- | -19.8 | eChemPortal |
| CC(O)CO.CC(O)C[N+](C)(C)CCCCCC[N+](C)(C)CC(C)O.[OH-].[OH-] (stereo unspecified) | n/a | -7.5 | eChemPortal |
| Cc1nc(N)nc2c1CCCC2 | 4-methyl-5,6,7,8-tetrahydroquinazolin-2-amine | 183 | OCHEM |
| CCN(CC)c1ccc2cc(-c3n(C)c4ccccc4[n+]3C)c(=O)oc2c1.[Cl-] | n/a | 349.8 | eChemPortal |
| CCC(O)COC1CCCCC1C(C)(C)C (stereo unspecified) | 2-Butanol, 1-[[2-(1,1-dimethylethyl)cyclohexyl]oxy]- | -28.5 | eChemPortal |
| O=C1NC(=O)C2CC=CCC12 (stereo unspecified) | 1,2,3,6-Tetrahydrophthalimide | 136.3 | PubChem, eChemPortal |
| O=C(c1ccc(Cl)cc1)c1ccsc1 | (4-Chlorophenyl)(thiophen-3-yl)methanone | 93 | OCHEM |
| CC(=O)Oc1ccc(C(C)(C)CC(C)(C)C)cc1C1C(=O)Oc2ccc(C(C)(C)CC(C)(C)C)cc21 (stereo unspecified) | n/a | 112 | eChemPortal |
| Fc1ccc2c(c1)CC[C@H]([C@H]1CO1)O2 | (R)-6-fluoro-3,4-dihydro-2-((R)-oxiran-2-yl)-2H-chromene | 43.8 | eChemPortal |
| NNC(=O)c1n[nH]c(=O)c2ccccc12 | 4-oxo-3,4-dihydrophthalazine-1-carbohydrazide | 240 | OCHEM |
| Clc1cc(Cl)c(Oc2cc(Cl)c(Cl)cc2Cl)cc1Cl | 2,2',4,4',5,5'-Hexachlorodiphenyl ether | 114 | QSARDB |
| C=C(C)C(=O)Oc1ccc(C(=O)c2ccccc2)cc1 | 4-Benzoylphenyl methacrylate | 70 | eChemPortal |
| CC1=NN(c2ccccc2)C(=O)C1N=Nc1ccc(C)cc1C (stereo unspecified) | C.I. Solvent Yellow 18 | 169.8 | eChemPortal |
| COc1ccc2[nH]cc(C(=O)CC#N)c2c1 | 3-(5-methoxy-1H-indol-3-yl)-3-oxopropanenitrile | 290 | OCHEM |
| CC(C)(C)c1cc([N+](=O)[O-])c(O)c(C(C)(C)C)c1 | 2,4-di-tert-butyl-6-nitrophenol | 59 | OCHEM |
| O=C(O)CCCN1C(=S)CSC1=S | 4-(2,4-dithioxo-1,3-thiazolidin-3-yl)butanoic acid | 123 | OCHEM |
| Cc1ccc(-n2nccn2)c(C(=O)O)c1 | 5-Methyl-2-(2H-1,2,3-triazol-2-yl)benzoic acid | 173.9 | eChemPortal |
| COc1cc(C)ccc1OCC(=O)O | (2-Methoxy-4-methyl-phenoxy)-acetic acid | 119 | OCHEM |
| COC(=O)c1cc2ccc(OCc3ccccc3)cc2[nH]1 | methyl 6-(benzyloxy)-1H-indole-2-carboxylate | 137 | OCHEM |
| O=C(O)C(F)(F)C(F)(F)C(F)(F)C(F)(F)C(F)(C(F)(F)F)C(F)(F)F | Perfluoro-6-(trifluoromethyl)heptanoic acid | 1.375 | ChemicalBook, OCHEM |
| CC(C)Cc1ccc(CC(C)C=O)cc1 (stereo unspecified) | 3-(p-Cumenyl)-2-methylpropionaldehyde | -4.4 | eChemPortal |
| O=c1[nH]c2cc([N+](=O)[O-])ccc2o1 | 5-Nitro-1,3-benzoxazol-2(3H)-one | 230 | OCHEM |
| Cc1nn(C)c(C)c1NC(=O)CCl | 2-chloro-n-(1,3,5-trimethyl-1h-pyrazol-4-yl)acetamide | 108 | OCHEM |
| CS(=O)(=O)Nc1ccc(C(=O)CCl)cc1 | Methanesulfonamide, N-[4-(chloroacetyl)phenyl]- | 156 | OCHEM |
| COc1ccc2c(c1)OCC(C(=O)O)=C2 | 7-methoxy-2H-chromene-3-carboxylic Acid | 202 | OCHEM |
| COc1ccc(CC(=O)NN)cc1 | 2-(4-Methoxyphenyl)acetohydrazide | 133 | OCHEM |
| Cc1nn(-c2ccccc2)c(C)c1CN | (3,5-dimethyl-1-phenyl-1H-pyrazol-4-yl)methylamine | 78 | OCHEM |
| NNC(=O)CNc1ccccc1F | 2-(2-Fluoroanilino)acetohydrazide (non-preferred name) | 100 | OCHEM |

Again, the 3 entries with the lowest melting point:

| compound | name | melting point (°C) | via |
|---|---|---|---|
| CCC(O)COC1CCCCC1C(C)(C)C (stereo unspecified) | 2-Butanol, 1-[[2-(1,1-dimethylethyl)cyclohexyl]oxy]- | -28.5 | eChemPortal |
| C=CNC=O | Formamide, N-ethenyl- | -28.2 | eChemPortal |
| CCCCCCCCCc1cc(C)cc(Cc2cc(C)cc(CCCCCCCCC)c2O)c1O | Phenol, 2,2'-methylenebis[4-methyl-6-nonyl- | -19.8 | eChemPortal |

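The OPERA project collected these measurements from public sources as training and test data for property models. A listed value is a point estimate from one report or more. Method and conditions are not stated for these values. Where a salt, mixture or single isomer is drawn, the source does not say that exactly this form was tested. Some upstream entries may be estimates or bounds without being marked so.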

Data: OPERA 2.9 data sets, kmansouri/OPERA on GitHub.